Structures are written as SMILES. The list shows a part of the results, in another mix than the full data. Calls of active or inactive are those of the source.

The source of these data is PubChem BioAssay AID1155 (ChemBank, 2008).

The experiment is described as follows: PSAC antagonists in infected red cells, primary screen, cell-based, P. falciparum Indochina, OD700, 2 h (AID 1155).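 Also: lysis reports solute entry through the parasite surface anion channel PSAC; channel blockers reduce lysis of infected cells.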 To be noted: P. falciparum Indochina infected erythrocytes, osmotic lysis OD700; higher = more signal, called active from +8 up or from −8 down.
Consider `O=P(/N=C1/CC(CCCO)=CC(C2CC2)N1Cc1cc2c(cc1Br)OCO2)(Oc1ccccc1)Oc1ccccc1` (stereo not given), for which the z-score was inactive: 0.716.

For `COP(=O)(/N=C1/CC(CCCO)=CC(C2CC2)N1Cc1cccc(OC(F)(F)F)c1)OC` (stereo not given), the z-score is inactive: 0.0648.

For the compound `CN1/C(=N\P(=O)(Oc2ccccc2)Oc2ccccc2)CC(CCCO)=CC1c1cccs1` (stereo not given), the z-score is inactive: 0.106.

With `COP(=O)(/N=C1/CC(CCCO)=CC(C2CC2)N1Cc1cc2c(cc1Br)OCO2)OC` (stereo not given), the z-score is inactive: 0.0673.

Take `O=P(/N=C1/CC(CCCO)=CC(C2CC2)N1Cc1cccc(OC(F)(F)F)c1)(Oc1ccccc1)Oc1ccccc1` (stereo not given): the z-score is inactive: 0.807.

As to `CN1/C(=N\P(=O)(Oc2ccccc2)Oc2ccccc2)CC(c2ccc(CO)cc2)=CC1C1CC1` (stereo not given), the z-score was inactive: -0.416.

For `O=P(/N=C1/CC(CCCO)=CC(c2cccs2)N1Cc1cccc(OC(F)(F)F)c1)(Oc1ccccc1)Oc1ccccc1` (stereo not given), the z-score is inactive: 1.3.

As to `CC1C=C(CCCO)C/C(=N/P(=O)(Oc2ccccc2)Oc2ccccc2)N1Cc1cccc(OC(F)(F)F)c1` (stereo not given), the z-score is inactive: 0.452.

`O=P(/N=C1/CC(CCCO)=CC(c2ccc(CN3CCCC3)cc2)N1Cc1cc2c(cc1Br)OCO2)(Oc1ccccc1)Oc1ccccc1` (stereo not given): the z-score is inactive: 0.323.

For `COP(=O)(/N=C1/CC(CCCO)=CC(c2ccc(CN3CCCC3)cc2)N1Cc1cc2c(cc1Br)OCO2)OC` (stereo not given), the z-score is inactive: -0.508.

In the case of `CN1/C(=N\P(=O)(Oc2ccccc2)Oc2ccccc2)CC(CCCO)=CC1c1ccc(CN2CCCC2)cc1` (stereo not given), the z-score was inactive: 0.464.

With `COP(=O)(/N=C1/CC(c2ccc(CO)cc2)=CC(c2cccs2)N1C)OC` (stereo not given), the z-score was inactive: 0.546.

Turning to `O=P(/N=C1/CC(c2ccc(CO)cc2)=CC(c2cccs2)N1Cc1cccc(OC(F)(F)F)c1)(Oc1ccccc1)Oc1ccccc1` (stereo not given), the z-score is inactive: 0.548.

Take `O=P(/N=C1/CC(c2ccc(CO)cc2)=CC(C2CC2)N1Cc1cc2c(cc1Br)OCO2)(Oc1ccccc1)Oc1ccccc1` (stereo not given): the z-score is inactive: 0.982.

Consider `COP(=O)(/N=C1/CC(c2ccc(CO)cc2)=CC(C2CC2)N1Cc1sc2ccccc2c1Cl)OC` (stereo not given), for which the z-score was inactive: 1.07.

As for `CN1/C(=N\P(=O)(Oc2ccccc2)Oc2ccccc2)CC(c2ccc(CO)cc2)=CC1c1cccs1` (stereo not given), the z-score is inactive: -0.591.

In the case of `COP(=O)(/N=C1/CC(CCCO)=CC(c2ccc(CN3CCCC3)cc2)N1Cc1cccc(OC(F)(F)F)c1)OC` (stereo not given), the z-score was inactive: 0.414.

With `O=P(/N=C1/CC(CCCO)=CC(c2cccs2)N1Cc1cc2c(cc1Br)OCO2)(Oc1ccccc1)Oc1ccccc1` (stereo not given), the z-score was inactive: 0.814.

For `COP(=O)(/N=C1/CC(CCCO)=CC(c2ccc(CN3CCCC3)cc2)N1C)OC` (stereo not given), the z-score is inactive: -0.509.

Regarding `COP(=O)(/N=C1/CC(CCCO)=CC(C2CC2)N1C)OC` (stereo not given), the z-score was inactive: -1.92.

On to `COP(=O)(/N=C1/CC(CCCO)=CC(c2cccs2)N1C)OC` (stereo not given), for which the z-score was inactive: -1.17.

`COP(=O)(/N=C1/CC(c2ccc(CO)cc2)=CC(C2CC2)N1C)OC` (stereo not given): the z-score was inactive: -0.723.

With `COP(=O)(/N=C1/CC(CCCO)=CC(C2CC2)N1Cc1sc2ccccc2c1Cl)OC` (stereo not given), the z-score is inactive: 1.86.

`COP(=O)(/N=C1/CC(CCCO)=CC(C)N1Cc1cccc(OC(F)(F)F)c1)OC` (stereo not given): the z-score was inactive: -0.558.

In the case of `COP(=O)(/N=C1/CC(CCCO)=CC(c2ccc(CN3CCCC3)cc2)N1Cc1sc2ccccc2c1Cl)OC` (stereo not given), the z-score is inactive: 1.17.

For the compound `O=P(/N=C1/CC(CCCO)=CC(C2CC2)N1Cc1sc2ccccc2c1Cl)(Oc1ccccc1)Oc1ccccc1` (stereo not given), the z-score is inactive: 1.24.

For `COP(=O)(/N=C1/CC(c2ccc(CO)cc2)=CC(C2CC2)N1Cc1cc2c(cc1Br)OCO2)OC` (stereo not given), the z-score is inactive: 0.459.

As for `O=P(/N=C1/CC(CCCO)=CC(c2ccc(CN3CCCC3)cc2)N1Cc1sc2ccccc2c1Cl)(Oc1ccccc1)Oc1ccccc1` (stereo not given), the z-score is inactive: 0.582.

In the case of `CN1/C(=N\P(=O)(Oc2ccccc2)Oc2ccccc2)CC(CCCO)=CC1C1CC1` (stereo not given), the z-score was inactive: -1.52.

Consider `O=P(/N=C1/CC(c2ccc(CO)cc2)=CC(C2CC2)N1Cc1sc2ccccc2c1Cl)(Oc1ccccc1)Oc1ccccc1` (stereo not given), for which the z-score was inactive: 2.
